Measurements published in paper PMC11266321 (EJNMMI Radiopharmacy and Chemistry, 2024).

Sequences of proteins named here, by UniProt entry; tags and fusion partners are left off. A change or cut given only in a name is not applied to a line headed by its entry.
UniProt Q9Y5N1: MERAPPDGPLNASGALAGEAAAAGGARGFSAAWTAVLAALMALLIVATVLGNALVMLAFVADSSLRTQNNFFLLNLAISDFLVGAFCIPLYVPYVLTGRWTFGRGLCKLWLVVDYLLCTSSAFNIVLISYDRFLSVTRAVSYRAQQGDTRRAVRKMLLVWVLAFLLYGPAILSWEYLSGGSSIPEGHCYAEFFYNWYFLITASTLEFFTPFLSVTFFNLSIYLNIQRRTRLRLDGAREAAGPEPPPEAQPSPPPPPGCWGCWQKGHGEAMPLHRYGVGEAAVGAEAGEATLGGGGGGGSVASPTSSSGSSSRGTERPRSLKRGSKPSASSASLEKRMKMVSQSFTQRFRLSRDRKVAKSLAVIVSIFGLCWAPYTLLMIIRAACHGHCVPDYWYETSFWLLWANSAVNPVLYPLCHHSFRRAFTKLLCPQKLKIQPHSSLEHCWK

Target: T1, Histamine H3 (Homo sapiens, UniProt Q9Y5N1)
T1 construct: Sekisui Medical (contract laboratory)
Assay: Radioligand binding inhibition, Histamine H3
Settings: 10 µM; radioligand [^3H]N-methyl-histamine; mean of duplicate
Method: Interaction of MMP with 28 binding sites was examined, including major classes of neurotransmitter receptor, uptake system, and ion channels (Sekisui Medical, Naka, Japan). MMP was tested in all assays at 10 µM. […] 10.2.3 (GraphPad Software, San Diego, CA). Each determination was made in duplicate.
Test substance concentration : 10 µM, positive substance concentration : 10 µM
Data are expressed as the mean values of duplicate samples.
The % inhibition was calculated from “100 – binding ratio”.
Binding ratio: [(B - N) / (B0 - N)] × 100 (%)
B: Bound radioactivity in the presence of test substance and positive substance (individual value)
B0: Total bound radioactivity in the absence of test substance and positive substance (mean value)
N: Non-specific bound radioactivity (mean value)

## (R)(–)-α-Methylhistamine [reference compound]
  Inhibition ratio (%): 99.25%
